We go through 1 molecule from patent US20240117074A1 (published 2024).

In assay [1] the target is T1, CEACAM8, recombinant soluble (CEACAM-8, R&D Systems #9639-CM-050) (UniProt P31997 35-320, limits assumed).
T1 sequence (looked up): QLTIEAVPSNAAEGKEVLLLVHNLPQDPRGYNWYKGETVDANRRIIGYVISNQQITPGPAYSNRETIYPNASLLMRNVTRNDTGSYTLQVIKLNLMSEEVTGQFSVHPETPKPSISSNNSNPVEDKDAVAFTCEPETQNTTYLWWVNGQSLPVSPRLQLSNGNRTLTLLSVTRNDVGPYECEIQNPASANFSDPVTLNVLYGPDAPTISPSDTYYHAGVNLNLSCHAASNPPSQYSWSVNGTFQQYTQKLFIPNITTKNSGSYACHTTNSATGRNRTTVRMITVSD
In words: ELISA, coated CEACAM family protein. On the technique in general: In an ELISA, binding on a coated surface is turned into a signal by an enzyme label.

For assay [2], the target named is T2, human CEACAM6, recombinant soluble (hCEACAM-6, R&D Systems #3934-CM-050) (human, UniProt P40199 35-320).
T2 sequence (looked up): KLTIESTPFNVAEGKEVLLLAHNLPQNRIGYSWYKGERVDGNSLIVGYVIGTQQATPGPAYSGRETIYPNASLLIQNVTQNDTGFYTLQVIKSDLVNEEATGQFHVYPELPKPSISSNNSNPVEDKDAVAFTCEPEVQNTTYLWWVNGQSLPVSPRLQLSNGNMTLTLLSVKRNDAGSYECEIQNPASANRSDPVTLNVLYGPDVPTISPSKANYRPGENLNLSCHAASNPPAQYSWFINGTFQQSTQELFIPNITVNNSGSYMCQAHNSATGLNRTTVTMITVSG
The experiment in a line: ELISA, coated CEACAM family protein.

B1: Multi42 (bispecific antibody, human IgG1, kappa, L234A L235A)
chain 1: not shown
light: EIVLTQSPGTLSLSPGERATLSCRASQSVSSSYLAWYQEKPGQAPRLLIYGASSRATGIPDRFSGSGSGTDFTLTISRLEPEDFAVYYCQQYWYPLTFGQGTKLEIKRTVAAPSVFIFPPSDEQLKSGTASVVCYLNNFYPREAKVQWKVDNALQSGNSQESVTEQDSKDSTYSLWSTLTLSKADYEKHKVYACEVTHQGLSSPVTKSFNRGEC
chain 2: EVQLLESGGGLVQPGGSLRLSCAASGFTFSTYGMHWVREAPGKGLEWLSYISGGSSYIFYADSVKGRFTISRDNSKNTLYLQMNSLRAEDTAVYYCARILRGGSGMDLWGQGTLVTVSSASTKGPSVFPLAPSSKSTSGGTAALGCLVKDYFPEPVTVSWNSGALTSGVHTFPAVLQSSGLYSLTSVVEVPSSSLGTQTYICNVNHKPSNTKVDKKVEPKSC
B1: the binding result in assay [1] and in assay [2] was “no binding” throughout.
